Ab-14 heavy chain CDR variants: yeast mating affinities

Target: peptide PDVDLGDISGINAS, taken from heptad repeat 2 (HR2) of SARS-CoV-2 spike.

Parent: Ab-14, a human scFv built as VH, the linker GGGGSGGGGSGGGGS, VL. Only the CDRs of the heavy chain vary.
VH: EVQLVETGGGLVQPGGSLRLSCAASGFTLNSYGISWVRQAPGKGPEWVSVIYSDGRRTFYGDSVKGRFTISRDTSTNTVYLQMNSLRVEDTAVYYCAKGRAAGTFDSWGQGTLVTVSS
VL: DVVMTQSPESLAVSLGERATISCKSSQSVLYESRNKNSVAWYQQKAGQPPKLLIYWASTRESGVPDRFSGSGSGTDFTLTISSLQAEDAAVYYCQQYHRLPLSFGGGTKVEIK

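Phage display of a naive human antibody library on the peptide gave the parent. Library AAYL49 holds single substitutions and randomly drawn double and triple substitutions in the CDRs. The scFvs were displayed on barcoded MATa yeast, the peptide on MATalpha yeast. Binding brings cells together so that they mate, and sequencing counts the barcode pairs among the diploids. A regression on co-assayed BCL2-family reference pairs converts the normalised counts of each replicate to an apparent Kd. The assay was run in three technical replicates.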

Each variant's VH is given in full. Values are log10 of the apparent Kd in nM; lower means stronger binding. Averages over replicates are reported, and they cover detected replicates only. An entry "ND" has no value in the source: the pair was not observed among the diploids in that replicate. This suggests poor binding but is not conclusive. Three control strains display no target. For library AAYL49, 15% of the pairings with them gave a signal, with a median of 4.06 and one signal in twenty below 2.83, so weak values seen in few replicates may be background. For each scFv, signals with the empty controls are counted beside the result, with their mean in brackets.

{"VH": "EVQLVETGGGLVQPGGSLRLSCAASGFTLNNYGISWVRQAPGKGPEWVSVIYFDGRITFYGDSVKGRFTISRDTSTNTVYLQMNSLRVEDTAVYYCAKGRAAGTFDSWGQGTLVTVSS", "log10 Kd, replicates": "ND ND ND", "mean, log10 nM": "ND", "empty controls": "1 of 9 (3.07)"}
{"VH": "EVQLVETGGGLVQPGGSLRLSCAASGFTLNSYGISWVRQAPGKGPEWVSVNYSDGRRTFYHDSVKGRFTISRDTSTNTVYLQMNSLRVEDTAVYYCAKGRAFGTFDSWGQGTLVTVSS", "log10 Kd, replicates": "ND ND ND", "mean, log10 nM": "ND", "empty controls": "0 of 9"}
{"VH": "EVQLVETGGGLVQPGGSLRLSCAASGFTNNSYGISWVRQAPGKGPEWVSVIYSDGRRTFYGKSVKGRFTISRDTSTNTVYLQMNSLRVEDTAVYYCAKGRAAGTFDEWGQGTLVTVSS", "log10 Kd, replicates": "ND ND ND", "mean, log10 nM": "ND", "empty controls": "0 of 9"}
{"VH": "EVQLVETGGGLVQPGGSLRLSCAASGFTLNHYGISWVRQAPGKGPEWVSVIYSDGRRTFYGDSVKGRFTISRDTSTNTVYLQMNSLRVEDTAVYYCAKGRTAGTFDSWGQGTLVTVSS", "log10 Kd, replicates": "ND ND ND", "mean, log10 nM": "ND", "empty controls": "1 of 9 (2.52)"}
{"VH": "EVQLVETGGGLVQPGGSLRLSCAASGFTLDSYGISWVRQAPGKGPEWVSVIYSDGRKTDYGDSVKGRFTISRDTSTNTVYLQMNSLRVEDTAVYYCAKGRAAGTFDSWGQGTLVTVSS", "log10 Kd, replicates": "3.66 5.41 ND", "mean, log10 nM": "4.53", "empty controls": "1 of 9 (6.04)"}
{"VH": "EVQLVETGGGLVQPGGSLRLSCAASGFTLNSYGISWVRQAPGKGPEWVSLIYSDGRNTFYGDSVKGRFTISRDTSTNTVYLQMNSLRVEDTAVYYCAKGRAAGTFDSWGQGTLVTVSS", "log10 Kd, replicates": "4.43 ND ND", "mean, log10 nM": "4.43", "empty controls": "4 of 9 (3.77)"}
{"VH": "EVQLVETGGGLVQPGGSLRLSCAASGFTLNSYGISWVRQAPGKGPEWVSVIYSDHRRTFYGDSVKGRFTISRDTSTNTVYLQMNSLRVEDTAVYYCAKGRVAGTFGSWGQGTLVTVSS", "log10 Kd, replicates": "ND ND ND", "mean, log10 nM": "ND", "empty controls": "1 of 9 (3.16)"}
{"VH": "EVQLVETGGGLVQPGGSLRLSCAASGFTLNSYGISWVRQAPGKGPEWVSVIYSDPRRTFYGDSVCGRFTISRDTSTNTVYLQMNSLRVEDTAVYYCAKGRAAGGFDSWGQGTLVTVSS", "log10 Kd, replicates": "ND ND ND", "mean, log10 nM": "ND", "empty controls": "0 of 9"}
{"VH": "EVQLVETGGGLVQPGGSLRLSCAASFFTLNSYGISWVRQAPGKGPEWVSVIYSDCRRTFYGDVVKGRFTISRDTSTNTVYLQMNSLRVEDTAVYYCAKGRAAGTFDSWGQGTLVTVSS", "log10 Kd, replicates": "ND ND ND", "mean, log10 nM": "ND", "empty controls": "0 of 9"}
{"VH": "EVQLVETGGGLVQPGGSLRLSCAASGFTLNSYGISWVRQAPGKGPEWVSVIYSDGRRTFYGDCVKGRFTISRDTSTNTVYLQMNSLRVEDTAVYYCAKGRAAGVFDSWGQGTLVTVSS", "log10 Kd, replicates": "ND ND ND", "mean, log10 nM": "ND", "empty controls": "0 of 9"}
{"VH": "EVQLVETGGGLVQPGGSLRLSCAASGFTDNSYGISWVRQAPGKGPEWVSDIYSDGRRTFPGDSVKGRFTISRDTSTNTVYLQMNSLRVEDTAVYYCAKGRAAGTFDSWGQGTLVTVSS", "log10 Kd, replicates": "ND ND ND", "mean, log10 nM": "ND", "empty controls": "3 of 9 (4.22)"}
{"VH": "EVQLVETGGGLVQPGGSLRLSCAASGFTGNSYGISWVRQAPGKGPEWVSVIYSDGRRTFYGDSVMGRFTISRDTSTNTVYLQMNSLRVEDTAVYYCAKGRAAGTFKSWGQGTLVTVSS", "log10 Kd, replicates": "ND 3.43 ND", "mean, log10 nM": "3.43", "empty controls": "0 of 9"}
{"VH": "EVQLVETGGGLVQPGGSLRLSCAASGFTLNSYGLSWVRQAPGKGPEWVSVIVSDGPRTFYGDSVKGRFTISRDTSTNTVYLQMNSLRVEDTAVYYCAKGRAAGTFDSWGQGTLVTVSS", "log10 Kd, replicates": "ND ND 3.24", "mean, log10 nM": "3.24", "empty controls": "2 of 9 (3.30)"}
{"VH": "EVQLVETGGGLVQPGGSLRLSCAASHFTLNSYGFSWVRQAPGKGPEWVSVIYSDGRRTFYGDSVKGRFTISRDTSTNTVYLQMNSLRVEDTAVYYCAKGRAAVTFDSWGQGTLVTVSS", "log10 Kd, replicates": "3.01 ND 4.82", "mean, log10 nM": "3.91", "empty controls": "2 of 9 (3.93)"}
{"VH": "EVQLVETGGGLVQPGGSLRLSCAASGFTLNSYGISWVRQAPGKGPEWVSAIPSDQRRTFYGDSVKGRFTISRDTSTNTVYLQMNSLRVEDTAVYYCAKGRAAGTFDSWGQGTLVTVSS", "log10 Kd, replicates": "3.64 ND ND", "mean, log10 nM": "3.64", "empty controls": "2 of 9 (4.42)"}
{"VH": "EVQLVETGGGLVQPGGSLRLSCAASGFTLNSYLPSWVRQAPGKGPEWVSVIYSDGRRTFYGKSVKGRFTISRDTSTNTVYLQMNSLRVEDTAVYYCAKGRAAGTFDSWGQGTLVTVSS", "log10 Kd, replicates": "ND ND 3.07", "mean, log10 nM": "3.07", "empty controls": "2 of 9 (4.43)"}
{"VH": "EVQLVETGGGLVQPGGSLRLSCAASGFTLNSYGISWVRQAPGKGPEWVSVIYSDYRRTFYGDSVKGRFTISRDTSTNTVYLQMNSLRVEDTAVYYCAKVRAAGTFDGWGQGTLVTVSS", "log10 Kd, replicates": "ND 3.40 ND", "mean, log10 nM": "3.40", "empty controls": "0 of 9"}
{"VH": "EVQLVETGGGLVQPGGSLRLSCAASGFTLNCYGISWVRQAPGKGPEWVSVIYSDGRRTFYGHSVKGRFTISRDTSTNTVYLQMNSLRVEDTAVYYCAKGRAAGTFDSWGQGTLVTVSS", "log10 Kd, replicates": "ND 2.99 ND", "mean, log10 nM": "2.99", "empty controls": "1 of 9 (3.03)"}
{"VH": "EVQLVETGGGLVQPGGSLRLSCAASGFYLNSYGISWVRQAPGKGPEWVSVINSIGRRTFYGDSVKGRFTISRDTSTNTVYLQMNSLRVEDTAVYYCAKGRAAGTFDSWGQGTLVTVSS", "log10 Kd, replicates": "ND ND ND", "mean, log10 nM": "ND", "empty controls": "0 of 9"}
{"VH": "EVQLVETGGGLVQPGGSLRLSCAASGFTMNSYGISWVRQAPGKGPEWVSVIYSDGRRTFYGDSVKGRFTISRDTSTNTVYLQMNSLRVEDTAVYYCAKGRAALTFDSWGQGTLVTVSS", "log10 Kd, replicates": "ND ND ND", "mean, log10 nM": "ND", "empty controls": "0 of 9"}
{"VH": "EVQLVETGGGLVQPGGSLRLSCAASGFTLNSSGISWVRQAPGKGPEWVSVICSDMRRTFYGDSVKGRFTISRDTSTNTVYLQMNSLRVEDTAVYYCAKGRAAGTFDSWGQGTLVTVSS", "log10 Kd, replicates": "ND ND ND", "mean, log10 nM": "ND", "empty controls": "0 of 9"}
{"VH": "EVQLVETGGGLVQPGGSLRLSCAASGFTLNSYGISWVRQAPGKGPEWVSVIYSDCRRGFYGDSVKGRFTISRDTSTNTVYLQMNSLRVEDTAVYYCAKGRTAGTFDSWGQGTLVTVSS", "log10 Kd, replicates": "ND 4.01 ND", "mean, log10 nM": "4.01", "empty controls": "0 of 9"}
{"VH": "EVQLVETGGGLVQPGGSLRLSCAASGFTLWMYGISWVRQAPGKGPEWVSVIYSDGRRTFYGDSVKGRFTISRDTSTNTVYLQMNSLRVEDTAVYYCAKGQAAGTFDSWGQGTLVTVSS", "log10 Kd, replicates": "ND 4.04 ND", "mean, log10 nM": "4.04", "empty controls": "1 of 9 (3.57)"}
{"VH": "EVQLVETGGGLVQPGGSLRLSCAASGGTLNSYGISWVRQAPGKGPEWVSVIYSDGRRTFYGDFVKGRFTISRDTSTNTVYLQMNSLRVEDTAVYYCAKGRAAGMFDSWGQGTLVTVSS", "log10 Kd, replicates": "ND ND ND", "mean, log10 nM": "ND", "empty controls": "0 of 9"}
{"VH": "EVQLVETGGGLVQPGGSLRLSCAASGFTLNSPGISWVRQAPGKGPEWVSVIYSDGRRTFYGCSVKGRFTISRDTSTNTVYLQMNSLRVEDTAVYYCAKGRHAGTFDSWGQGTLVTVSS", "log10 Kd, replicates": "ND ND ND", "mean, log10 nM": "ND", "empty controls": "2 of 9 (4.21)"}
{"VH": "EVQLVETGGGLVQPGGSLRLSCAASGFTLNSYVISWVRQAPGKGPEWVSVIYSDGRRTFYGDSVKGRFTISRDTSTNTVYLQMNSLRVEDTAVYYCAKGRAAGFFDSWGQGTLVTVSS", "log10 Kd, replicates": "4.26 3.69 3.34", "mean, log10 nM": "3.76", "empty controls": "4 of 9 (4.62)"}

Values reported by Engelhart et al. 2022, doi:10.1038/s41597-022-01779-4 (FLAb copy).